Measurements taken from patent publication US5753516A, “Screening method for ligands of the EBI-1 receptor” (priority 1995, dated 1998).

Target: T1, EBI1 (Homo sapiens, UniProt P32248)
T1 sequence (P32248 25-378): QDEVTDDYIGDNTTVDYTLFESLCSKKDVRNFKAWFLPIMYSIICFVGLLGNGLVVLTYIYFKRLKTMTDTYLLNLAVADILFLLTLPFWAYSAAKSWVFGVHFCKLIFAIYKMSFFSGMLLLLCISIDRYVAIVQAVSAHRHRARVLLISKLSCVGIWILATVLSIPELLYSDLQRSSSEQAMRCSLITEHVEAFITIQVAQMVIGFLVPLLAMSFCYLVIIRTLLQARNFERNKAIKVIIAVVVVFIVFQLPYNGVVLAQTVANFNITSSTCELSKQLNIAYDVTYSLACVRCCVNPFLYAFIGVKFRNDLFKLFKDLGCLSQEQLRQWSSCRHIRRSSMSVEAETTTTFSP

SMILES: C[C@@H](NC(=O)[C@@H](N)Cc1ccc(O)cc1)C(=O)NCC(=O)N(C)[C@@H](Cc1ccccc1)C(=O)NCCO [DAMGO, [D-Ala^2, Me-Phe^4, Gly(ol)^5]-enkephalin]
- effect on intracellular cAMP, EBI1 transfectants: but not DAMGO (μ-agonist) or U50,488 (κ-agonist) elicited an elevation in intracellular cAMP content

SMILES: CC1(C)SSC(C)(C)[C@@H](NC(=O)[C@@H](N)Cc2ccc(O)cc2)C(=O)NCC(=O)N[C@@H](Cc2ccccc2)C(=O)N[C@H]1C(=O)O [DPDPE, [D-Pen^2,5]enkephalin]
- effect on intracellular cAMP, EBI1 transfectants: elicited an elevation in intracellular cAMP content
